In PubChem BioAssay AID686971 (National Center for Advancing Translational Sciences (NCATS), 2013):
The entries are a selection whose mix differs from that of the whole data set. Inconclusive results are not listed. Active and inactive are the calls of the source. Calls come from the whole dose curve; as a rule, active = well fitted cell-killing curve with a large enough effect; inconclusive = small, poorly fitted or top-dose-only effect, or effect the other way, or another doubt; inactive = no such curve, though single readings can be large or run the other way.

experiment: qHTS for induction of synthetic lethality in tumor cells producing 2HG: qHTS for the HT-1080-IDH1KD cell line; conditions: HT-1080 IDH1 knockdown viability, ATP luminescence, 48 h; series mostly up to 46.1 µM;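 for activity, negative = toxicity: 0% = DMSO wells and -100% = cell-free medium wells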
Potency is the fitted concentration of half-maximal effect.

| Compound | Potency | activity, negative = toxicity |
| --- | --- | --- |
| COc1cc(C(=O)NCC2(N3CCOCC3)CCCCC2)ccc1OCC(C)C | inactive | – |
| CCN(CC)CCCOC(=O)C(O)(c1ccccc1)c1ccccc1 | inactive | – |
| CC(O)C1C=CC=CC(=O)OC2CC3OC4C5OC5(C)CCC4(COC(=O)C4OC4(C)C(O)CO1)C2(C)C31CO1 (stereo not drawn) | active: 92 nM | – |
| CC1CCOC(=O)C=CC=CC(=O)OC2CC3OC4C5OC5(C)C(O)CC4(COC(=O)C1O)C2(C)C31CO1 (stereo not drawn) | active: 116 nM | – |
| CCCCOc1ccc(C(=O)NCC2(N3CCCCC3)CCCCC2)cc1OC | inactive | – |
| CC1CCOC(=O)C=CC=CC(=O)OC2CC3OC4C5OC5(C)CCC4(COC(=O)C1O)C2(C)C31CO1 (stereo not drawn) | active: 32.6 nM | – |
| CN(C)C1(CNC(=O)c2ccc(S(C)(=O)=O)cc2)CCCCC1 | inactive | – |
| CP(=O)(Nc1ccc(SC(F)(F)F)cc1)Oc1ccccc1 (stereo not drawn) | active: 20600 nM | – |
| CN1CCCCC1COC(=O)C1(O)c2ccccc2CCc2ccccc21 (stereo not drawn) | inactive | – |
| C=C(C=O)CC1CC(O)[C@]2(C)OC3CC4OC5C[C@]6(C)O[C@]7(C)CCC8OC9C[C@]%10(C)OC%11C(C)=CC(=O)OC%11CC%10OC9C[C@@H](C)C8OC7CC6O[C@]5(C)CC5OC5C4OC3CC2O1 (stereo partly drawn) | active: 1160 nM | – |
| COc1cc(C(=O)NCC2(N3CCOCC3)CCCCC2)cc(Cl)c1OC(C)C | inactive | – |
| CCN(CC)CCCOC(=O)C(O)(c1ccccc1)C1CCCCC1 (stereo not drawn) | inactive | – |
| CC1=CC2OC3CC4OC(=O)C=CC=CC(=O)OCCC(C)C(O)C(=O)OCC2(CC1)C4(C)C31CO1 (stereo not drawn) | active: 8.2 nM | – |
| O=C(OCCN1CCN(CCOCc2ccccc2)CC1)C(O)(c1ccccc1)c1ccccc1 | inactive | – |
| CC1=CC2OC3CC4OC(=O)C=CC=CC(=O)OCCC(C)C(O)C(=O)OCC2(CC1O)C4(C)C31CO1 (stereo not drawn) | active: 146 nM | – |
| CN(C)CCOC(=O)C(O)(c1ccccc1)C1CCCCC1 (stereo not drawn) | inactive | – |
| CN(C)C1(CNC(=O)c2ccc(Cl)c(S(N)(=O)=O)c2)CCCCC1 | inactive | – |
| O=[N+]([O-])c1ccc(OP2(=O)COCCO2)cc1 (stereo not drawn) | inactive | – |
| O=C(OCCCN1CCCC1)C(O)(c1ccccc1)C1CCCCC1 (stereo not drawn) | inactive | – |
| CCN(CC)CC(O)COC(=O)C(O)(c1ccccc1)C1CCCCC1 (stereo not drawn) | inactive | – |
| CC1=CC2OC3CC4OC(=O)/C=C/C=CC(C(C)O)OCC(O)C(C)CC(=O)OCC2(CC1O)C4(C)C31CO1 (stereo not drawn) | active: 23.1 nM | – |
| CN(C)CCOC(=O)C(O)(c1ccccc1)C1CCCC1 (stereo not drawn) | – | inactive: -25.4% [at 9.24 µM] |
| CC(=O)OC1C(=O)OCC23CCC4(C)OC4C2OC2CC(OC(=O)C=CC=CC(=O)OCCC1C)C3(C)C21CO1 (stereo not drawn) | active: 184 nM | – |
| CC1=CC2OC3CC4OC(=O)C=CC=CC(C(C)O)OCC(O)C5(C)OC5C(=O)OCC2(CC1O)C4(C)C31CO1 (stereo not drawn) | active: 29.1 nM | – |
| C[C@H]1[C@@H](OS(=O)(=O)O)C[C@@H]2C[C@H]([C@@H](O)c3cc(=O)[nH]c(=O)[nH]3)NC3=NC[C@H]1N32 | active: 2060 nM | – |
| CC(O)C1C=CC=CC(=O)OC2CC3OC4C5OC5(C)C(O)CC4(COC(=O)C(O)C(C)CCO1)C2(C)C31CO1 (stereo not drawn) | active: 517 nM | – |
| C=C(C=O)C[C@@H]1C[C@H](O)C2OC3C[C@]4(C)OC5/C=C\CC6OC7C(CC=CCC6OC5CCCC4OC3CC2O1)OC1CC2OC3CC(=O)OC3C[C@@H](C)C[C@@]2(C)OC1C[C@@H]7C (stereo partly drawn) | active: 4610 nM | – |
| CC(=O)O[C@H]1C[C@@H]2OC3C=C(C)CCC3(C)[C@@]1(C)[C@@]21CO1 (stereo partly drawn) | active: 2060 nM | – |
